Screening results deposited in PubChem by Broad Institute.
Rows were chosen to be rich in hits. Some 1.7% of all compounds tested hit in one or more screens of this group.
CDK5 p35 inh = inhibitors of human CDK5/p35 kinase, primary screen, biochemical, single concentration; Cyclin-dependent kinase 5 (Homo sapiens) + Cyclin-dependent kinase 5 activator 1 (Homo …; Recombinant CDK5/p35, ADP-Glo luminescence, 60 min; inhibition, % at 10 µM; actives 0.01% (n = 330,000);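 active = highest replicate inhibition of at least 50% and at least 75% of replicates reaching 50%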;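 also: plate controls were DMSO neutral control for no effect and GW8510 at 10 µM for full effect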
dFosB act = activators of delta FosB homodimer, primary screen, biochemical, fluorescence polarization, TAMRA-CDK5 oligo, single point; Protein FosB (Mus musculus), P13346; purified delta FosB; percent of positive-control signal above neutral wells; activation, % at 25 µM; actives 0.99% (n = 340,000); AID 493131, 2011;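 active = mean activation above about 17%, with every replicate also reaching it, limit read from the data, passing the limit was not always enough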
Yeast UUG start = modulators of start codon recognition fidelity in yeast | S. cerevisiae UUG-firefly luciferase reporter, luminescence/redox ratio | activity score, % at 18.7 µM | 350,000 tested, 0.13% active;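 active = replicate mean at a twofold rise or more, about +100% in these data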;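 also: firefly luciferase made from a UUG start codon reports start codon fidelity; reporter light over untreated wells divided by growth signal over untreated wells; some hits fall short of that in this replicate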
Dyrk1A ADPGlo = rat Dyrk1A kinase inhibitors, primary screen, biochemical, single point, plate reader; Dual specificity tyrosine-phosphorylation-regulated kinase 1A (Rattus norvegicus), Q63470; ADP-Glo luminescence, NFATc1 peptide; inhibition, % at 12.5 µM; actives 0.43% (n = 310,000); AID 504441, 2011; in the data active = inhibition above about 50%;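 also: plate controls were vehicle with enzyme for no effect and no enzyme for full effect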
CAL PDZ FP-1 = untagged CAL PDZ binding inhibitors, primary screen, biochemical, fluorescence polarization, HTS; Golgi-associated PDZ and coiled-coil motif-containing protein (Homo sapiens), Q9HD26; purified CAL PDZ, TMR-peptide fluorescence polarization, 1 h; inhibition, % at 24.9 µM; actives 0.92% (n = 300,000); AID 602252, 2012;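 active = mean inhibition of at least 30% with at least half of replicates also reaching 30%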;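 also: 0% = DMSO neutral control and 100% = excess unlabeled competitor peptide PRC23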
CAL PDZ FP-2 = CAL PDZ peptide-binding inhibitors, primary screen, biochemical, fluorescence polarization, Cer-tagged CAL PDZ, HTS. Golgi-associated PDZ and coiled-coil motif-containing protein (Homo sapiens), Q9HD26. purified CAL PDZ, TMR-peptide fluorescence polarization, 1 h. inhibition, % at 20 µM. actives 0.02% (n = 330,000). AID 504414, 2011;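 active = highest replicate inhibition of at least 40%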;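 also: plate controls were DMSO neutral control wells for no effect and unlabeled competitor peptide control wells for full effect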
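Control set: unlabelled peptide and DMSO controls / Material: purified CerCALP PDZ construct / Timing: 1 h incubation at room temperature before polarization reading / Doses: 20 µM, one dose / Detection: fluorescence polarization (mP)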
* = called active by the depositor; / = not tested or not shown.

SMILES	CDK5 p35 inh	dFosB act	Yeast UUG start	Dyrk1A ADPGlo	CAL PDZ FP-1	CAL PDZ FP-2
O=C(O)CSc1nc2c(c(C(F)(F)F)n1)CCc1ccccc1-2	-5.5	-4.4	/	4.4	3.2	-1.2
CC(=O)OC1COC(n2ccc3ccccc32)C(OC(C)=O)C1OC(C)=O (configuration not stated)	-1.7	-0.5	-5.5	1.2	0.5	0.2
CC(=O)OC1COC(n2c(O)c(N=NC(N)=S)c3ccccc32)C(OC(C)=O)C1OC(C)=O (configuration not stated)	1.5	-2.1	-10.3	3.2	37.9*	-0.7
C[C@@H]1CN([C@@H](C)CO)S(=O)(=O)c2ccc(C3=CCCCC3)cc2O[C@H]1CN(C)C(=O)CN(C)C	/	/	19.9	/	/	/
CCNC(=O)C[C@H]1CC[C@H]2[C@@H](COC[C@@H](O)CN2C(=O)Nc2ccc(Cl)c(Cl)c2)O1	/	/	-0.7	/	/	/
COc1ccc(CNc2nc3nc(-c4ccccc4)cc(=O)n3[nH]2)cc1OC	0.5	1.6	-21.8	3.7	39.6*	-0.9
Oc1ccc(Br)cc1/C=N/Nc1ncc(-c2ccccc2)cn1	0.8	30.1*	/	-4.1	1.1	0.7
Oc1ccc(/C=N/Nc2ncc(Br)cn2)c(O)c1	7.2	-6.9	-20.9	5.5	1.1	0.2
C[C@@H]1CN([C@H](C)CO)C(=O)c2cc(NC(=O)c3ccncc3)ccc2O[C@H]1CN(C)S(=O)(=O)c1ccc(Cl)cc1	/	/	5.3	/	/	/
CN1C(=O)c2cc(NC(=O)C3CCCCC3)ccc2OC[C@@H]2O[C@@H](CC(=O)NCCc3ccncc3)CC[C@H]21	/	/	2.4	/	/	/
COc1ccc(C2=CSC3=C(C(=O)c4cccc(S(=O)(=O)N(C)C)c4)CCN23)cc1	-0.6	-0.8	-1.6	2.7	95.7*	/
CN(C)Cc1cc(C(C)(C)C)cc(N2CCOCC2)c1O	0.7	-6.1	-4.7	-3.0	89.1*	0.2
CCSc1nsc(NC(=O)Nc2cccc(F)c2)n1	-0.5	3.7	-13.0	4.3	70.4*	7.8
COc1ccc(-c2nnn(CC(=O)N(CCN3CCOCC3)C(C(=O)NC3CCCC3)c3ccco3)n2)cc1 (configuration not stated)	0.1	-10.1	/	-2.9	52.7*	-0.8
Cc1ccc(-c2nnn(CC(=O)N(CC3CCCO3)C(C(=O)NC3CCCCC3)c3ccc(F)cc3)n2)o1 (configuration not stated)	2.4	24.8*	-11.5	3.1	/	-0.8
Cc1ccc(N(CC(=O)NC2CCCCC2)C(=O)Cn2nnc(-c3ccc(C)o3)n2)cc1	-0.6	-19.2	3.3	4.5	-8.5	16.6
COc1ccc(C)cc1N(CC(=O)NC1CCCC1)C(=O)Cn1nnc(-c2ccc(C)o2)n1	0.4	-8.5	20.6	1.1	103.2*	0.3
CO[C@H]1CN(C)C(=O)c2ccc(NS(=O)(=O)c3ccccc3Cl)cc2OC[C@H](C)NC[C@H]1C	/	/	-0.6	/	/	/
CCOCCCNC(=O)c1ccc(OC(C)=O)cc1	1.0	2.6	-17.7	3.6	36.5*	-1.2
CCOCCCNC(=O)c1ccc(OC)cc1	0.7	4.1	-2.9	4.6	-1.5	-0.7
C[C@@H]1CN([C@@H](C)CO)C(=O)c2cc(NC(=O)Cc3ccccc3)ccc2O[C@@H](C)CCCCO[C@H]1CN(C)S(=O)(=O)c1ccccc1	/	/	18.3	/	/	/
Cc1ccc(S(=O)(=O)N(C)C[C@H]2OCCCC[C@H](C)Oc3ccc(NS(=O)(=O)c4cn(C)cn4)cc3C(=O)N([C@H](C)CO)C[C@@H]2C)cc1	/	/	-7.2	/	/	/
Cc1noc(NS(=O)(=O)c2ccc(NC(=O)c3ccc(N(C)C)cc3)cc2)c1C	0.4	-4.0	-2.8	-2.3	57.7*	-0.2
COc1ccc(S(=O)(=O)N2CCC[C@H]2C(=O)NCc2ccc(Cl)cc2)cc1	-0.9	-2.0	2.3	-1.6	71.2*	0.1
O=C(NCC1CC1)[C@@H]1[C@@H](CO)[C@@H]2Cn3c(ccc(-c4cccnc4)c3=O)[C@H]1N2C(=O)C1CCCCC1	/	/	0.5	/	/	/
Clc1nc2ccccc2cc1/C=N/Nc1nc2ccccc2[nH]1	3.2	17.8*	/	10.2	1.2	-1.5
CC(=O)Nc1ccc(/C=N/Nc2nc3ccccc3[nH]2)cc1	0.9	11.5	/	-0.7	0.9	-0.6
Cc1nn(-c2ccccc2)c(C)c1/C=N/Nc1nc2ccccc2[nH]1	2.5	26.8*	-62.0	4.4	-2.6	-0.2
Cc1c(/C=N/Nc2nc3ccccc3[nH]2)c2ccccc2n1C	0.9	78.3*	-28.9	-2.0	13.6	2.1
CCN(CC)c1ccc(/C=N/Nc2nc3ccccc3[nH]2)cc1	2.3	38.8*	-13.0	2.8	-2.2	-1.7

One compound at a time, from the list above. Screens in order: CDK5 p35 inh | dFosB act | Yeast UUG start | Dyrk1A ADPGlo | CAL PDZ FP-1 | CAL PDZ FP-2
Entry for `Cc1ccc(N(CC(=O)NC2CCCCC2)C(=O)Cn2nnc(-c3ccc(C)o3)n2)cc1` = -0.6 | -19.2 | 3.3 | 4.5 | -8.5 | 16.6
Entry for `CC(=O)Nc1ccc(/C=N/Nc2nc3ccccc3[nH]2)cc1` = 0.9 | 11.5 | / | -0.7 | 0.9 | -0.6

Another view of part of the listing above:
Each structure is followed by: CDK5 p35 inh	dFosB act	Yeast UUG start	Dyrk1A ADPGlo	CAL PDZ FP-1	CAL PDZ FP-2
> O=C(NCC1CC1)[C@@H]1[C@@H](CO)[C@@H]2Cn3c(ccc(-c4cccnc4)c3=O)[C@H]1N2C(=O)C1CCCCC1
 : /	/	0.5	/	/	/
> COc1ccc(CNc2nc3nc(-c4ccccc4)cc(=O)n3[nH]2)cc1OC
 : 0.5	1.6	-21.8	3.7	39.6*	-0.9

The results go on.
SMILES	CDK5 p35 inh	dFosB act	Yeast UUG start	Dyrk1A ADPGlo	CAL PDZ FP-1	CAL PDZ FP-2
Cc1noc(C)c1NC(=O)Nc1ccc2c(c1)C(=O)N([C@@H](C)CO)C[C@H](C)[C@H](CN(C)C(=O)Nc1ccc(F)cc1)O2	/	/	7.0	/	/	/
Cc1noc(C)c1S(=O)(=O)Nc1ccc2c(c1)CC(=O)N([C@@H](C)CO)C[C@@H](C)[C@H](CN(C)C(=O)Nc1ccc(F)cc1)O2	/	/	10.0	/	/	/
CCOC(=O)CN(C(=O)CSc1nnc(-c2cccc(OC)c2)o1)c1ccc(F)cc1	-0.8	-5.9	-7.3	4.2	32.4*	12.7
O=S(=O)(c1ccccc1)N1CCN(CCc2ccccc2)CC1	-1.1	-10.7	-12.7	-6.0	69.0*	-4.8
CCN1[C@H](C(=O)Nc2ccccc2)[C@@H](CO)[C@@H]2Cn3c(ccc(-c4ccccc4)c3=O)[C@@H]21	/	/	4.5	/	/	/
COc1ccc(-c2sc3ccccc3c2-c2ccc(OCCN(C)C)cc2)cc1	1.4	25.2*	-24.6	1.5	-2.0	-1.0
COc1ccc(S(=O)(=O)N(C)C[C@H]2OCCCC[C@H](C)Oc3ccc(NS(=O)(=O)c4ccc(C)cc4)cc3C(=O)N([C@H](C)CO)C[C@@H]2C)cc1	/	/	1.5	/	/	/
CC1Cc2ccccc2N1C(=O)COC(=O)c1cccc(Br)c1 (configuration not stated)	0.4	-22.3	3.3	/	182.4*	-2.0
Cc1ccc(S(=O)(=O)Nc2ccc3c(c2)C(=O)N([C@H](C)CO)C[C@@H](C)[C@@H](CN(C)C(=O)Nc2c(C)noc2C)OCCCC[C@@H](C)O3)cc1	/	/	-0.6	/	/	/
C[C@@H]1CN([C@H](C)CO)C(=O)c2cccc(NC(=O)Nc3ccc(C(F)(F)F)cc3)c2O[C@H]1CN(C)Cc1ccc2c(c1)OCO2	/	/	16.0	/	/	/
